Substrate in data set [1]: CC(=O)OCC1=C(C(=O)O)N2C(=O)[C@@H](NC(=O)Cc3cccs3)[C@H]2SC1
The experiment in a line: Ratio of Kcat to Km for Klebsiella pneumoniae cephalosporinase CMY-36 by spectrophotometry. The procedure, abridged:
(§1)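 CMY β-lactamases purified from sonicated, ultracentrifuge-clarified extracts of E. coli DH5α clones (pB-cmy36, pB-cmy2) by Q- then S-Sepharose ion exchange (>90% pure by SDS-PAGE); steady-state hydrolysis kinetics measured spectrophotometrically, CMY-2 run in parallel.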

Substrate in data set [2]: CC(=O)OCC1=C(C(=O)O)N2C(=O)[C@@H](NC(=O)Cc3cccs3)[C@H]2SC1
The experiment in a line: Activity of Klebsiella pneumoniae HP205 cephalosporinase CMY-36 by spectrophotometry. A digest of the protocol:
as §1

Substrate in data set [3]: CC(=O)OCC1=C(C(=O)O)N2C(=O)[C@@H](NC(=O)Cc3cccs3)[C@H]2SC1
The note with it: Salmonella enterica subsp. enterica serovar Newport; AM17274.

Substrate in data set [4]: CC(=O)OCC1=C(C(=O)O)N2C(=O)[C@@H](NC(=O)Cc3cccs3)[C@H]2SC1
The note with it: Salmonella enterica subsp. enterica serovar Newport; AM17274. This is another data set of the same source.

Substrate in data set [5]: O=C(Cc1cccs1)N[C@@H]1C(=O)N2C(C(=O)[O-])=C(C[n+]3ccccc3)CS[C@H]12
The note with it: Salmonella enterica subsp. enterica serovar Newport; AM17274.

B1: Class C beta-lactamase CMY-36 (Klebsiella pneumoniae), Q48435 (protein)
chain: MMKKSLCCALLLTASFSTFAAAKTEQQIADIVNRTITPLMQEQAIPGMAVAVIYQGKPYYFTWGKADIANNHPVTQQTLFELGSVSKTFNGVLGGDCIARGEIKLSDPVTKYWPELTGKQWQGIRLLHLATYTAGGLPLQIPDDVRDKAALLHFYQNWQPQWTPGAKRLYANSSIGLFGALAVKPSGMSYEEAMTRRVLQPLKLAHTWITVPENEQKDYAWGYREGKPVHVSPGQLDAEAYGVKSSVIDMARWVQANMDASHVQEKTLQQGIALAQSRYWRIGDMYQGLGWEMLNWPLKADSIINGSDSKVALAALPAVEVNPPAPAVKASWVHKTGSTGGFGSYVAFVPEKNLGIVMLANKSYPNPVRVEAAWRILEKLQ
What is called kcat/Km is the second-order rate constant that governs catalysis at low substrate concentration. A word on the Km: it is the substrate concentration at which the rate is half of its maximum. What is called kcat is the maximal rate divided by the concentration of active sites. In the case of B1, the kcat/Km in data set [1] amounted to 3.18e+07 M⁻¹ s⁻¹. In addition, in data set [2], the Km was 4.4 µM and the kcat amounted to 140 s⁻¹.

B2: Efflux transporter (Salmonella newport), Q3S5C3 (protein)
chain: MSWIVLLIAGLLEVVWAIGLKYTHGFTRLTPSIITIAAMIVSIAMLSWAMRTLPVGTAYAVWTGIGAVGAAITGILLLGESASPARLLSLGLIVAGIIGLKLSTH
As for B2, the kcat/Km in data set [3] was determined as 2.94e+07 M⁻¹ s⁻¹. In data set [4], the Km turned out to be 5.1 µM and the kcat was determined as 150 s⁻¹. Moreover, the Michaelis-Menten constant (Km) in data set [5] came to 150 µM.

Source of the values: ChEMBL document CHEMBL1629653, “CMY-31 and CMY-36 cephalosporinases encoded by ColE1-like plasmids” (Antimicrob Agents Chemother, 2009).
